Amino acid sequences for entries named in this document (tags omitted).
UniProt Q96SW2, whole entry: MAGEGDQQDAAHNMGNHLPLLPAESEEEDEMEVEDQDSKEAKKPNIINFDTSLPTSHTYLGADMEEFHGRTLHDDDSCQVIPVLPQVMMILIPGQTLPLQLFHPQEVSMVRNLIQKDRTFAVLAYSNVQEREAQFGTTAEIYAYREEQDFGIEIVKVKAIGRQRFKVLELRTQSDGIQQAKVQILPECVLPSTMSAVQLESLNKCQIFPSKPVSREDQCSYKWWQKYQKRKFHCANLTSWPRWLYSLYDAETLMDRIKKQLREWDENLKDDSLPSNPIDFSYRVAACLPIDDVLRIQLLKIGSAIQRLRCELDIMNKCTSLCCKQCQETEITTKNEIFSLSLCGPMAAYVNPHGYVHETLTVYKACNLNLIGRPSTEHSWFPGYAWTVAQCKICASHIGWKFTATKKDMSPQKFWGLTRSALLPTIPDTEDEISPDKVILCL

According to patent EP4834897A1, “COMPOUNDS WITH TWO AZAHETEROCYCLES SUBSTITUTED ISOINDOLINONE SKELETON AND USES THEREOF” (dated 2026):

Biological target: CRBN (Homo sapiens, UniProt Q96SW2)
Test: CRBN binding affinity by HTRF (CEREBLON BINDING kit)
Settings: CRBN binding, HTRF, compound at 0.5 µM

| Compound | Inhibition Rate at 0.5 µM (%) |
| --- | --- |
| CC1(C)CCC(C(=O)N2CCN(C3CCN(C(=O)c4ccc5c(c4)C(=O)N(C4CCC(=O)NC4=O)C5)CC3(F)F)CC2)=C(c2ccc(Cl)cc2)C1 (centres unmarked) | a6 (60% < a6 ≤ 70%) |
| O=C1CCC(N2C(=O)c3ccc(CN4CCC(N5CCN(c6noc7cc(F)ccc67)CC5)C(F)(F)C4)cc3C2=O)C(=O)N1 (centres unmarked) | a2 (20% < a2 ≤ 30%) |
| O=C1CCC(N2Cc3ccc(C(=O)N4CCC(N5CCN(c6noc7cc(F)ccc67)CC5)C(F)(F)C4)cc3C2=O)C(=O)N1 (centres unmarked) | a3 (30% < a3 ≤ 40%) |
| O=C1CCC(N2Cc3ccc(C(=O)N4CCC(N5CCC(c6noc7cc(F)ccc67)CC5)C(F)(F)C4)cc3C2=O)C(=O)N1 (centres unmarked) | a4 (40% < a4 ≤ 53%) |
| O=C1CCC(N2Cc3cccc(C(=O)N4CCC(N5CCC(c6noc7cc(F)ccc67)CC5)C(F)(F)C4)c3C2=O)C(=O)N1 (centres unmarked) | a4 (40% < a4 ≤ 53%) |
| CC1(C)CCC(CN2CCN(C3CCN(C(=O)c4cc(F)c5c(c4)CN(C4CCC(=O)NC4=O)C5=O)CC3(F)F)CC2)=C(c2ccc(Cl)cc2)C1 (centres unmarked) | a2 (20% < a2 ≤ 30%) |
| O=C1CCC(N2Cc3cccc(C(=O)N4CCC(N5CCN(c6cccc(Cl)c6Cl)CC5)C(F)(F)C4)c3C2=O)C(=O)N1 (centres unmarked) | a2 (20% < a2 ≤ 30%) |
| O=C1CCC(N2Cc3cc(CCCN4CCC(N5CCN(c6noc7cc(F)ccc67)CC5)C(F)(F)C4)ccc3C2=O)C(=O)N1 (centres unmarked) | a4 (40% < a4 ≤ 53%) |
| O=C1CCC(N2Cc3c(CN4CCC(N5CCN(C(c6ccccc6)c6ccccc6)CC5)CC4)cccc3C2=S)C(=O)N1 (centres unmarked) | a2 (20% < a2 ≤ 30%) |
| CC1(C)CCC(C(=O)N2CCN(C3CCN(C(=O)c4cccc5c4C(=O)N(C4CCC(=O)NC4=O)C5)CC3(F)F)CC2)=C(c2ccc(Cl)cc2)C1 (centres unmarked) | a5 (53% < a5 ≤ 60%) |
| CC1(C)CCC(C(=O)N2CCN(C3CCN(C(=O)c4cc(F)c5c(c4)CN(C4CCC(=O)NC4=O)C5=O)CC3(F)F)CC2)=C(c2ccc(Cl)cc2)C1 (centres unmarked) | a6 (60% < a6 ≤ 70%) |
| O=C1CCC(N2Cc3cc(CN4CCC(N5CCN(c6noc7cc(F)ccc67)CC5)CC4)cc(F)c3C2=O)C(=O)N1 (centres unmarked) | a4 (40% < a4 ≤ 53%) |
| O=C1CCC(N2Cc3ccc(C(=O)N4CCC(N5CCN(c6cccc(Cl)c6Cl)CC5)CC4)cc3C2=O)C(=O)N1 (centres unmarked) | a3 (30% < a3 ≤ 40%) |

Same assay, conditions: CRBN binding, HTRF, compound at 2 µM

| Compound | Inhibition Rate at 2 µM (%) |
| --- | --- |
| CC1(C)CCC(C(=O)N2CCN(C3CCN(C(=O)c4ccc5c(c4)C(=O)N(C4CCC(=O)NC4=O)C5)CC3(F)F)CC2)=C(c2ccc(Cl)cc2)C1 (centres unmarked) | a8 (80% < a8 ≤100%) |
| O=C1CCC(N2C(=O)c3ccc(CN4CCC(N5CCN(c6noc7cc(F)ccc67)CC5)C(F)(F)C4)cc3C2=O)C(=O)N1 (centres unmarked) | a5 (53% < a5 ≤ 60%) |
| O=C1CCC(N2Cc3ccc(C(=O)N4CCC(N5CCN(c6noc7cc(F)ccc67)CC5)C(F)(F)C4)cc3C2=O)C(=O)N1 (centres unmarked) | a7 (70% < a7 ≤80%) |
| O=C1CCC(N2Cc3ccc(C(=O)N4CCC(N5CCC(c6noc7cc(F)ccc67)CC5)C(F)(F)C4)cc3C2=O)C(=O)N1 (centres unmarked) | a7 (70% < a7 ≤80%) |
| O=C1CCC(N2Cc3cccc(C(=O)N4CCC(N5CCC(c6noc7cc(F)ccc67)CC5)C(F)(F)C4)c3C2=O)C(=O)N1 (centres unmarked) | a7 (70% < a7 ≤80%) |
| CC1(C)CCC(CN2CCN(C3CCN(C(=O)c4cc(F)c5c(c4)CN(C4CCC(=O)NC4=O)C5=O)CC3(F)F)CC2)=C(c2ccc(Cl)cc2)C1 (centres unmarked) | a6 (60% < a6 ≤ 70%) |
| O=C1CCC(N2Cc3cccc(C(=O)N4CCC(N5CCN(c6cccc(Cl)c6Cl)CC5)C(F)(F)C4)c3C2=O)C(=O)N1 (centres unmarked) | a5 (53% < a5 ≤ 60%) |
| O=C1CCC(N2Cc3cc(CCCN4CCC(N5CCN(c6noc7cc(F)ccc67)CC5)C(F)(F)C4)ccc3C2=O)C(=O)N1 (centres unmarked) | a7 (70% < a7 ≤80%) |
| O=C1CCC(N2Cc3c(CN4CCC(N5CCN(C(c6ccccc6)c6ccccc6)CC5)CC4)cccc3C2=S)C(=O)N1 (centres unmarked) | a5 (53% < a5 ≤ 60%) |
| CC1(C)CCC(C(=O)N2CCN(C3CCN(C(=O)c4cccc5c4C(=O)N(C4CCC(=O)NC4=O)C5)CC3(F)F)CC2)=C(c2ccc(Cl)cc2)C1 (centres unmarked) | a7 (70% < a7 ≤80%) |
| CC1(C)CCC(C(=O)N2CCN(C3CCN(C(=O)c4cc(F)c5c(c4)CN(C4CCC(=O)NC4=O)C5=O)CC3(F)F)CC2)=C(c2ccc(Cl)cc2)C1 (centres unmarked) | a8 (80% < a8 ≤100%) |
| O=C1CCC(N2Cc3cc(CN4CCC(N5CCN(c6noc7cc(F)ccc67)CC5)CC4)cc(F)c3C2=O)C(=O)N1 (centres unmarked) | a7 (70% < a7 ≤80%) |
| O=C1CCC(N2Cc3ccc(C(=O)N4CCC(N5CCN(c6cccc(Cl)c6Cl)CC5)CC4)cc3C2=O)C(=O)N1 (centres unmarked) | a5 (53% < a5 ≤ 60%) |
